SMILES strings stand for the structures. This is a selection; strong and weak results do not stand in their true shares. Active and inactive are the calls of the source.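 Rule for the calls: active = inhibition above a set limit, roughly 3 SD of non-fluorescent compound noise (cut at about 38% in these data); inactive = inhibition at or below that limit.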

Sequences of proteins named here, by UniProt entry; tags and fusion partners are left off. A change or cut given only in a name is not applied to a line headed by its entry.
UniProt P63010: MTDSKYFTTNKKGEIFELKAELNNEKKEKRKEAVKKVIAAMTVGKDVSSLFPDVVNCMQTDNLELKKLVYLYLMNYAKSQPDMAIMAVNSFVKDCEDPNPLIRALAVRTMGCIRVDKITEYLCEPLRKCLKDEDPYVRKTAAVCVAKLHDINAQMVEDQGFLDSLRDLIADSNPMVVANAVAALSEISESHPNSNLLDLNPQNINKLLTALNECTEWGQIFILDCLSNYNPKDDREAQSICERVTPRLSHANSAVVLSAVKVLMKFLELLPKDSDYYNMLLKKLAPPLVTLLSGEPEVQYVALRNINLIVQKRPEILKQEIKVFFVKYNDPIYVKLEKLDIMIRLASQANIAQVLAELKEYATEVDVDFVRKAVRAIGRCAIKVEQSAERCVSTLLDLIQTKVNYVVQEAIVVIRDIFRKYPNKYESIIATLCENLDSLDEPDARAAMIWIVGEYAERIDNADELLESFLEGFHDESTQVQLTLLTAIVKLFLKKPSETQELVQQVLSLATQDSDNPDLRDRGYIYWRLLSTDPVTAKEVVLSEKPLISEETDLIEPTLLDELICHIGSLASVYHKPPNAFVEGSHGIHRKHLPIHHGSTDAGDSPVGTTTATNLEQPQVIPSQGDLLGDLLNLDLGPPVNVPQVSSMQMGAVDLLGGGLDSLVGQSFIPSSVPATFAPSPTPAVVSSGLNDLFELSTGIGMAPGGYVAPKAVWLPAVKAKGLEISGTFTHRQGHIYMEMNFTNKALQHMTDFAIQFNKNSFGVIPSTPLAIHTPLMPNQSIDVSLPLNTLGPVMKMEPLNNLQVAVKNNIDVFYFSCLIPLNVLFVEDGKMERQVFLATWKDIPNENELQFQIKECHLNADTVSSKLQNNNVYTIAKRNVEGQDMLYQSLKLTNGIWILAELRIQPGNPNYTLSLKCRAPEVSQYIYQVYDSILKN

The target in this assay is AP-2 complex subunit beta (Homo sapiens) (UniProt P63010). The assay can be described thus: beta-arrestin/AP2 interaction blockers, retest – biochemical, cherry pick 1, flow cytometry beads, confirmation (AID 504908).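 Note: loss of bead fluorescence from 50 nM FITC arrestin peptide bound to appendage; 0% = negative control wells and 100% = excess unlabelled arrestin peptide.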 Particulars: GST-AP2 beads, FITC arrestin peptide binding, at 10 µM, active compounds read high, GST-fused beta2-adaptin appendage, R879A mutant.
In the case of `COC(=O)c1cc2c(s1)N=C(c1ccccc1)N(C)P2(=O)N1CCOCC1` (stereo unspecified), the inhibition was inactive: -3.24%.
